Only a part is listed here, and it is no random draw. Active and inactive are the calls of the source.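 Rule for the calls: active = inhibition above 50%, about 3 SD of the inhibition seen with non-fluorescent compounds; inactive = the rest.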

Among the data in PubChem BioAssay AID588338 (NMMLSC, 2011) are inhibition values, retold here.

The nature of the test: GST-fluorescein capture on glutathione beads, confirmation, artefact control for arrestin-AP2 inhibitor project, biochemical, cherry pick 1, flow cytometry (AID 588338).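 Note: fluorescein maleimide labelled GST captured on 4 micron glutathione beads; higher means more loss of bead fluorescence from quenching or blocked binding.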 To be noted: GST-fluorescein binding to GSH beads, fluorescence, counter-screen; at 10 µM; stronger effect = higher value. On the technique in general: In flow cytometry, cells or beads pass a laser one at a time.
As a reminder, the inhibition is the drop in the measured response relative to a control, in per cent. For the molecule `COC(=O)c1cc2c(s1)N=C(c1ccccc1)N(C)P2(=O)N1CCOCC1` (stereo unspecified), the inhibition was inactive: 6.38%.
